Antibody variant affinities, Ab-95 light chain, assay 2

Target: peptide PDVDLGDISGINAS, taken from heptad repeat 2 (HR2) of SARS-CoV-2 spike.

Ab-95 is the parent antibody, in scFv form: VH, then a (GGGGS)3 linker, then VL. The heavy chain is unchanged in all variants.
VH: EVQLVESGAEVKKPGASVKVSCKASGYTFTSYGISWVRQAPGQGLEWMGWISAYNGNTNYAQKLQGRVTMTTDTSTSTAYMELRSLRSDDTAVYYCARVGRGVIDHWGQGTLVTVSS
VL: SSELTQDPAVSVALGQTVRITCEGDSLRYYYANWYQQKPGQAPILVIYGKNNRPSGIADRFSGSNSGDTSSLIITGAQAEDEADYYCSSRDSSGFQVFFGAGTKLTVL

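The parent was found by panning a naive human phage display library on the peptide. AAYL52 was designed without a model: most single CDR substitutions and a random sample of double and triple ones. AlphaSeq pools MATa yeast showing the antibodies with MATalpha yeast showing the peptide. Mating (16 h, 30 °C) was followed by selection of diploids and sequencing of their barcodes. Read counts were normalised to the haploid input and turned into Kd by a linear fit to BCL2-family pairs of known affinity, for each replicate. The assay was run in three technical replicates.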

Changes read parent residue, position, new residue, counted from the first residue of the VL shown.
Affinities are written as log10 Kd with Kd in nM; a lower number is a better binder.
A mean of the replicates is given; it leaves out those without a signal.
"ND" marks a missing value. The strain was present, yet no cells mated with the target were sequenced in that replicate, which points to weak or no binding.
As a blank, each scFv also met three strains without target: over library AAYL52, 28% of these pairings were detected, typically at 3.91 and seldom below 2.90. Also given: how often the same scFv was detected with the empty control strains, with their mean in brackets.
For reference, the parent read 2.31 as the reference entry and 2.25 as a member of this library.

{"changes": "A32D S89P S92N", "log10 Kd, replicates": "ND 5.54 ND", "mean, log10 nM": "5.54", "signal with controls": "1/9 (2.90)"}
{"changes": "N33L K50I F98S", "log10 Kd, replicates": "ND ND ND", "mean, log10 nM": "ND", "signal with controls": "2/9 (4.08)"}
{"changes": "E23V R28L S92T", "log10 Kd, replicates": "3.39 3.18 2.09", "mean, log10 nM": "2.89", "signal with controls": "2/9 (3.64)"}
{"changes": "G24K Y29W S88Y", "log10 Kd, replicates": "4.12 4.60 3.29", "mean, log10 nM": "4.00", "signal with controls": "7/9 (3.83)"}
{"changes": "K50S P54G S89D", "log10 Kd, replicates": "3.21 4.32 4.25", "mean, log10 nM": "3.93", "signal with controls": "3/9 (3.46)"}
{"changes": "E23T L27N R53T", "log10 Kd, replicates": "4.46 4.03 2.69", "mean, log10 nM": "3.73", "signal with controls": "1/9 (4.75)"}
{"changes": "Y29H D91M S93A", "log10 Kd, replicates": "2.34 1.72 2.11", "mean, log10 nM": "2.05", "signal with controls": "2/9 (4.37)"}
{"changes": "R53G S55I", "log10 Kd, replicates": "4.84 3.50 3.95", "mean, log10 nM": "4.10", "signal with controls": "1/9 (3.76)"}
{"changes": "R28G A32E D91A", "log10 Kd, replicates": "ND ND 4.01", "mean, log10 nM": "4.01", "signal with controls": "1/9 (3.46)"}
{"changes": "Y31M G94I V97M", "log10 Kd, replicates": "4.51 ND ND", "mean, log10 nM": "4.51", "signal with controls": "5/9 (3.77)"}
{"changes": "Y31K N33G S88G", "log10 Kd, replicates": "3.26 4.99 3.16", "mean, log10 nM": "3.80", "signal with controls": "4/9 (3.64)"}
{"changes": "D25Y R53F Q96M", "log10 Kd, replicates": "3.76 ND 3.65", "mean, log10 nM": "3.70", "signal with controls": "4/9 (3.59)"}
{"changes": "R53I P54M Q96G", "log10 Kd, replicates": "3.32 4.11 3.99", "mean, log10 nM": "3.81", "signal with controls": "3/9 (3.75)"}
{"changes": "D25R R53P S89H", "log10 Kd, replicates": "ND 4.83 4.01", "mean, log10 nM": "4.42", "signal with controls": "2/9 (3.45)"}
{"changes": "S26M P54A F95C", "log10 Kd, replicates": "2.48 2.79 1.92", "mean, log10 nM": "2.40", "signal with controls": "1/9 (3.35)"}
{"changes": "A32K K50R V97W", "log10 Kd, replicates": "ND ND ND", "mean, log10 nM": "ND", "signal with controls": "1/9 (3.66)"}
{"changes": "G49K R90I D91G", "log10 Kd, replicates": "ND 4.58 ND", "mean, log10 nM": "4.58", "signal with controls": "4/9 (4.63)"}
{"changes": "S26I G49A N51A", "log10 Kd, replicates": "ND ND 4.19", "mean, log10 nM": "4.19", "signal with controls": "1/9 (3.58)"}
{"changes": "N51R R53D Q96A", "log10 Kd, replicates": "ND 5.42 3.80", "mean, log10 nM": "4.61", "signal with controls": "6/9 (4.09)"}
{"changes": "G49N", "log10 Kd, replicates": "2.72 2.69 2.70", "mean, log10 nM": "2.70", "signal with controls": "1/9 (4.79)"}
{"changes": "E23S R28P P54G", "log10 Kd, replicates": "2.36 2.75 2.26", "mean, log10 nM": "2.46", "signal with controls": "3/9 (4.45)"}
{"changes": "N33I F95A V97R", "log10 Kd, replicates": "ND ND ND", "mean, log10 nM": "ND", "signal with controls": "1/9 (3.77)"}

The closing 3 entries, repeated:

changes	log10 Kd, replicates	mean, log10 nM	signal with controls
G49N	2.72 2.69 2.70	2.70	1/9 (4.79)
E23S R28P P54G	2.36 2.75 2.26	2.46	3/9 (4.45)
N33I F95A V97R	ND ND ND	ND	1/9 (3.77)

Data: MIT Lincoln Laboratory AlphaSeq set, Engelhart et al. 2022, doi:10.1038/s41597-022-01779-4, as distributed in FLAb.